Experiments:
CB1 receptor = CB1 receptor (Rattus norvegicus, UniProt P20272); test: Radioligand binding assay ([3H]CP-55,940 displacement), rat forebrain membranes as source of CB1; settings: read-out: Ki in nM for the CB1 Receptor, 0.8 nM [3H]CP-55,940, Ki from IC50 by Cheng and Prusoff
CB2 receptor = CB2 receptor (Mus musculus, UniProt P47936); test: Radioligand binding assay ([3H]CP-55,940 displacement), mouse spleen as source of CB2; settings: read-out: Ki in nM for the CB2 Receptor, Ki from IC50 by Cheng and Prusoff
Method: Approximately 30 μg of tissue was incubated in silanized 96 well microtiter plate with TME containing 0.1% essentially fatty acid free bovine serum albumin (BSA), 0.8 nM CH^3]CP-55,940 and various concentrations of the test compound in a final volume of 200 μL. Assays were incubated at 30° C. for 1 hour. The samples were filtered using Packard Filtermate 196 and Whatman GF/C Filterplates and washed with wash buffer (TME) containing 0.5% BSA. Radioactivity was detected using MicroScint 20 scintillation cocktail added directly to the dried filterplates, and the filterplates were counted using a Packard Instruments Top-Count. Nonspecific binding was assessed using 100 nM CP-55,940. Data collected from three independent experiments performed with duplicate determinations were normalized between 100% and 0% specific binding for [H^3]CP-55,940, determined using buffer and 100 nM CP-55,940. The normalized data was analyzed using a 4 parameter nonlinear logistic equation to yield IC50 values. Data from at least two independent experiments performed in duplicate were used to calculate IC50 values which were convered to Ki values using the assumptions of Cheng and Prusoff, Biochem. Pharmacol., 22:3099 (1973), the entire teachings of which are incorporated herein by reference.
Mouse spleen was used a source of CB2 receptors to assess binding affinity of analogs described in this invention. […]

Protein sequences, listed by entry. Tags and fused reporters are not part of them.
UniProt P20272, whole entry: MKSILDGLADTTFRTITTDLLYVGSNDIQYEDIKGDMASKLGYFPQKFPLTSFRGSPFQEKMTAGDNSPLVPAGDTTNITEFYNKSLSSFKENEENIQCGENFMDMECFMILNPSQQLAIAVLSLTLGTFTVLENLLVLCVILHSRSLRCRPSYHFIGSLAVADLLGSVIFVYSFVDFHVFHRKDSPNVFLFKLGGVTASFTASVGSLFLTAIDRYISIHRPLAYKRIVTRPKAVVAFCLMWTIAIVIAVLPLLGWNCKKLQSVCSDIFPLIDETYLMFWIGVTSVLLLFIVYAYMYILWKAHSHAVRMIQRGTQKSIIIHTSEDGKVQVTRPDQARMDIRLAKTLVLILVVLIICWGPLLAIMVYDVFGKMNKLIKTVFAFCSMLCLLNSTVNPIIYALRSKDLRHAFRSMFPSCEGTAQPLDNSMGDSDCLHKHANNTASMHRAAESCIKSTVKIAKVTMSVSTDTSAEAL
UniProt P47936, whole entry: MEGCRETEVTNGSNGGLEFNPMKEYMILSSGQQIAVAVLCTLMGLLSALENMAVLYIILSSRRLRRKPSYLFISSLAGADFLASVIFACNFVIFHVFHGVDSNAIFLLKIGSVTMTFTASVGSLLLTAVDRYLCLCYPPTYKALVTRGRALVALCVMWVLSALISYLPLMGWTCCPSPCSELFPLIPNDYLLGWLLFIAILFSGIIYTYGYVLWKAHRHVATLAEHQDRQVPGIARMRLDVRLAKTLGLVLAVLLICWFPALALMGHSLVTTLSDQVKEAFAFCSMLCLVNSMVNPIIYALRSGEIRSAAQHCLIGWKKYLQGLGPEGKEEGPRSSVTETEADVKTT

Question: With CCCC1CCC(C)(c2cc(O)c3c(c2)OC(C)(C)[C@@H]2CC=C(C)C[C@@H]32)CC1 (single isomer, unassigned) [AM408] as the compound, how does the Ki (CB1 receptor) read?
Answer: Its Ki is 18.3 nM.

Question: Which Ki (CB1 receptor) does the source give for CCC1CCC(C)(c2cc(O)c3c(c2)OC(C)(C)[C@@H]2CC=C(C)C[C@@H]32)CC1 (single isomer, unassigned) [AM406] here?
Answer: Its Ki is 14.5 nM.

Question: For CCCC1CCC(C)(c2cc(O)c3c(c2)OC(C)(C)[C@@H]2CC=C(C)C[C@@H]32)CC1 (single isomer, unassigned) [AM407], which Ki (CB1 receptor) is on record?
Answer: The Ki was 9.1 nM.

Question: Which results are given for CCCC1CCC(c2cc(O)c3c(c2)OC(C)(C)[C@@H]2CC=C(C)C[C@@H]32)CC1 (stereo partly drawn)?
Answer: Ki (CB1 receptor): 25.8 nM; Ki (CB2 receptor): 22.3 nM

Question: For CCC1CCC(C)(c2cc(O)c3c(c2)OC(C)(C)[C@@H]2CC=C(C)C[C@@H]32)CC1 (single isomer, unassigned) [AM405], which Ki (CB1 receptor) is on record?
Answer: The Ki was 19.1 nM.

Question: Which Ki (CB1 receptor) does the source give for CCCCCCC1(c2cc(O)c3c(c2)OC(C)(C)[C@@H]2CC=C(C)C[C@@H]32)SCCCS1 here?
Answer: Its Ki is 3.6 nM.

Question: For CC1=CC[C@@H]2[C@@H](C1)c1c(O)cc(C3(C)C4CC5CC(C4)CC3C5)cc1OC2(C)C (stereo partly drawn), which Ki (CB1 receptor) is on record?
Answer: The Ki was 78.2 nM.

Question: What about the Ki (CB2 receptor) of the same compound?
Answer: Its Ki is 40.3 nM.

— US20050239874A1, “Novel analgesic and immunomodulatory cannabinoids” (University of Connecticut, priority 1998, published 2005)
